In PubChem BioAssay AID743050 (The Scripps Research Institute Molecular Screening Center, 2013):
The entries are a selection whose mix differs from that of the whole data set. Active and inactive are the calls of the source.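 How the source made its calls: active means mean activation over triplicate wells above the hit cutoff derived from the earlier primary screen (cut at about 11% in these data); inactive means the rest.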

System: DAF-12 nuclear receptor (Heterodera glycines), GAL4-LBD fusion
Experiment: H. glycines DAF-12 receptor agonists, confirmation, cell-based, luminescence, HEK293, GAL4-LBD fusion (AID 743050);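 further: 0% = DMSO low control and 100% = 2 mM sodium butyrate high control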
Settings: HEK293 GAL4-hgDAF12 luciferase reporter, agonist mode; at 6.8 µM; active compounds read high; percent of butyrate response

Compound | activation
O=P1(N(CCCl)CCCl)Nc2ccccc2N1 | active: 10.7%
